Assay results: PubChem BioAssay AID2221 (Broad Institute, 2009)
The list shows a part of the results, in another mix than the full data. Some of these compounds have results that are not shown, active ones among them. Active and inactive are the calls of the source. Rule as the data show it: active = inhibition above about 30%; inconclusive = no clear call, values can overlap the other calls; inactive = below that.

By UniProt entry, the sequences of proteins in these tests, tags left out.
UniProt P9WHJ3, whole entry: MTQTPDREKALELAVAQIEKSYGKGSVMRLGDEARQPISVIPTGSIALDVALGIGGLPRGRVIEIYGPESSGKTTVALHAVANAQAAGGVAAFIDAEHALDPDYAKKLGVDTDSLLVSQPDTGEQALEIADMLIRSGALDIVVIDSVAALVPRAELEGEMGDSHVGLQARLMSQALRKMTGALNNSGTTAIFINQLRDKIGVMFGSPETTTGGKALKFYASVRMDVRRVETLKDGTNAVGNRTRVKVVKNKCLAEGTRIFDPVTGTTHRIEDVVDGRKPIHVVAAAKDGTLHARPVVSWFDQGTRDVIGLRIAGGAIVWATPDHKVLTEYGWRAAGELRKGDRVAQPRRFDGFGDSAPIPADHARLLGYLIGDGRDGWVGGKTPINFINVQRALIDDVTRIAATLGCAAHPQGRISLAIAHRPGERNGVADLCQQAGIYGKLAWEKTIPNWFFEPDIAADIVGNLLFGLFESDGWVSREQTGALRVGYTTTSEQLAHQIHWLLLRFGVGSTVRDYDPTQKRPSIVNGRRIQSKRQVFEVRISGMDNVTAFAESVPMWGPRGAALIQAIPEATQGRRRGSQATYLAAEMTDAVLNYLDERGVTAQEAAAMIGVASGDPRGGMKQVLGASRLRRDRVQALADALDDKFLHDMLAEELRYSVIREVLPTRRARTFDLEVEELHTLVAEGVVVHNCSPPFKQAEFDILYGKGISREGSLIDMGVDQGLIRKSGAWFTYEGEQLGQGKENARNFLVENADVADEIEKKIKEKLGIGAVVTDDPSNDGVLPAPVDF

The compounds below were run against Protein RecA (Mycobacterium tuberculosis (strain ATCC 25618 / H37Rv)) (UniProt P9WHJ3) (assay: Mtb RecA intein splicing inhibitors, primary screen, biochemical, fluorescence, HTS (AID 2221;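 also: 0% = vehicle wells and 100% = reference inhibitor control wells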)). Details: cell-free RecA intein splicing, hits give high values, concentration not given here.
`CN(C)c1cccc(C(=O)NCC2(N(C)C)CCCCC2)c1` was tested, and the inhibition was inactive: -2.6%. In the case of `CC(C)Oc1ccc(C(=O)NCC2(N(C)C)CCCCC2)cc1`, the inhibition is reported as inactive: -1.91%. With `COc1ccc(Br)c(C(=O)NCC2(N3CCCCC3)CCCCC2)c1` the inhibition was inactive: 1.25%. In the case of `O=C(OC1CN2CCC1CC2)C(CO)(c1ccccc1)c1ccccc1` (stereo not drawn), the inhibition is reported as inactive: -0.0365%. With `O=C(NCC1(N2CCCCC2)CCCCC1)c1cccc(Cl)c1` the inhibition was inactive: 2.08%. With `COc1ccc(Cl)cc1C(=O)NCC1(N(C)C)CCCCC1` the inhibition was inactive: 0.0281%. With `COc1cccc(C(=O)NCC2(N3CCCCC3)CCCCC2)c1` the inhibition was inactive: -0.969%. With `COc1cc(C(=O)NCC2(N(C)C)CCCCC2)c([N+](=O)[O-])cc1OC` the inhibition was inactive: -0.241%. For `CN(C)C1(CNC(=O)c2ccc(Br)cc2)CCCCC1`, the inhibition was inactive: -0.502%. With `O=C(NCC1(N2CCCCC2)CCCCC1)c1cccc(Br)c1` the inhibition was inactive: 0.543%. With `Cc1cc(C(=O)NCC2(N3CCCCC3)CCCCC2)ccc1[N+](=O)[O-]` the inhibition was inactive: -0.466%. `CCN1CCCC(OC(=O)C2(O)c3ccccc3C=Cc3ccccc32)C1` (stereo not drawn) was tested, and the inhibition was inactive: -6.34%. With `COc1ccc(C(=O)NCC2(N(C)C)CCCCC2)cc1` the inhibition was inactive: -1.38%. In the case of `O=C(NCC1(N2CCCCC2)CCCCC1)c1cc(F)c(F)cc1Cl`, the inhibition is reported as inactive: 0.437%. In the case of `C=CCN1CCN(CCOC(=O)C(O)(c2ccccc2)c2ccccc2)CC1`, the inhibition is reported as inactive: -0.408%. With `CN(C)C1CCCC1OC(=O)C(O)(c1ccccc1)c1ccccc1` (stereo not drawn) the inhibition was inactive: -1.3%. In the case of `CN(C)c1ccc(C(=O)NCC2(N(C)C)CCCCC2)cc1`, the inhibition is reported as inactive: -1.69%. For `Cc1ccccc1C(=O)NCC1(N2CCCCC2)CCCCC1`, the inhibition was inactive: 3.09%. For `CC(C)N1C(=O)CC2(CCN(CCOC(=O)C(O)(c3ccccc3)c3ccccc3)CC2)C1=O`, the inhibition was inactive: 0.492%. In the case of `COc1cc(SC)ccc1C(=O)NCC1(N(C)C)CCCCC1`, the inhibition is reported as inactive: -1.48%. For `CCN(CC)CC(C)C(C)OC(=O)C(O)(c1ccccc1)c1ccccc1` (stereo not drawn), the inhibition was inactive: -0.532%. `CN1[C@@H]2CC[C@H]1CC(OC(=O)C(O)(c1ccccc1)c1ccccc1)C2` (stereo partly drawn) was tested, and the inhibition was inactive: -0.157%. For `O=C(NCC1(N2CCCCC2)CCCCC1)c1cc([N+](=O)[O-])ccc1Cl`, the inhibition was inactive: 2.14%.
